Reference: ChEMBL document CHEMBL4007420, “Structural Optimization and Pharmacological Evaluation of Inhibitors Targeting Dual-Specificity Tyrosine Phosphorylation-Regulated Kinases (DYRK) and CDC-like kinases (CLK) in Glioblastoma” (J Med Chem, 2017)

Amino acid sequences for entries named in this document (tags omitted). A change or cut given only in a name is not applied to a line headed by its entry.
UniProt P49759: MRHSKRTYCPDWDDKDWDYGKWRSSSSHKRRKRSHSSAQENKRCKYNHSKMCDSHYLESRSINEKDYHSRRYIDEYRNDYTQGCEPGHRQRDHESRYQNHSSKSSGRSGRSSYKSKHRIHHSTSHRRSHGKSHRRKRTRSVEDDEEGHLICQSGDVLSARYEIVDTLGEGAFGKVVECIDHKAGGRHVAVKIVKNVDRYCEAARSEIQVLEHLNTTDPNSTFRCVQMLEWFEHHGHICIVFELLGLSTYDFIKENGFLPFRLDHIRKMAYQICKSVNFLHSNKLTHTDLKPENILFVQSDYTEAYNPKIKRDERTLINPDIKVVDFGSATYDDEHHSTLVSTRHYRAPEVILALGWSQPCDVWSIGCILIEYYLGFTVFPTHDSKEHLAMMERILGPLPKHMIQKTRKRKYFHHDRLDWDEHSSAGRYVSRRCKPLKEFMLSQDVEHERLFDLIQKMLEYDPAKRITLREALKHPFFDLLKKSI

Biological target: Dual specificity protein kinase CLK1 (Homo sapiens, UniProt P49759)

O=C1NC(Nc2ccccc2)=N/C1=C\c1ccc2c(c1)OCO2
IC50: 71 nM
